# Earlier results, collected in publication PMC8394219, “In Vitro Nephrotoxicity Studies of Established and Experimental Platinum-Based Compounds” (Biomedicines, 2021).
# Tests used:
# [1] = tested on: MATE2-K; conditions: cited from earlier work
# [2] = tested on: organic cation transporter 2 (OCT2); set-up: method as in PMID 17582384, PMID 21144842; conditions: cited from earlier work
smiles,measurement,setting,value
O=C1[O][Pt]2([NH][C@@H]3CCCC[C@H]3[NH]2)[O]C1=O [Oxaliplatin],affinity for MATE2-K,[1],substrate for both MATE1 and MATE2-K
same,uptake via / affinity to OCT2,[2],uptake via OCT2 has also been observed
